Measurements: patent US20230081390A1, “INHIBITORS OF RAF KINASES” (Kinnate Biopharma Inc., priority 2019, published 2023)

By UniProt entry, the sequences of proteins in these tests, tags left out.
UniProt P04049, whole entry: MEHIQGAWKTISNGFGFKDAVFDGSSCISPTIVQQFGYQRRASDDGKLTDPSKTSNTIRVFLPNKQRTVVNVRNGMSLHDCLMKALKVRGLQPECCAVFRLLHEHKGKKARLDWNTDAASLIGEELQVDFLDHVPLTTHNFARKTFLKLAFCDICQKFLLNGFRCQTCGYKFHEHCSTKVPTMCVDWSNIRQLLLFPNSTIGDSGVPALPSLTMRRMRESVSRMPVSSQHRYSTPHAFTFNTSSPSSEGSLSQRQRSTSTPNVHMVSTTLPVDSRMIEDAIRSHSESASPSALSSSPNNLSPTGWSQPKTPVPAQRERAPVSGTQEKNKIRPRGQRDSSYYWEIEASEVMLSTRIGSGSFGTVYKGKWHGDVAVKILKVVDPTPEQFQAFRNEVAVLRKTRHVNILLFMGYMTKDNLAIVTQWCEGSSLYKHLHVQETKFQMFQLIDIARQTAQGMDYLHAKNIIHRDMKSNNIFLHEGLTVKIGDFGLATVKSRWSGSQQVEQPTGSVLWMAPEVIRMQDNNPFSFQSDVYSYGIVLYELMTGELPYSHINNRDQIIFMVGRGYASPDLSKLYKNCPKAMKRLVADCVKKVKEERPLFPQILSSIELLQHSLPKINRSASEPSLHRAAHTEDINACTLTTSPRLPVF

Target: human RAF1 (Homo sapiens, UniProt P04049)
Assay: Protein kinase assay (33P-ATP filter binding), human RAF1, 10-dose IC50
Type: biochemical
Details: read-out: RAF-1 IC50, MEK1 (K97R) substrate 3 micromolar, ATP 10 micromolar

**Q.** For `Cc1cc(F)c(NC(=O)N2CCC=C(C(F)(F)F)C2)cc1-c1cc(OCCO)nc(N2CCOCC2)c1`, which IC50 is on record?
**A.** < 0.01 µM
